Values quoted from earlier work as cited in US20220031684A1, “PROPHYLACTIC EFFICACY OF SEROTONIN 4 RECEPTOR AGONISTS AGAINST STRESS” (THE TRUSTEES OF COLUMBIA UNIVERSITY IN THE CITY OF NEW YORK, priority 2019, published 2022).
Counter-ions that a name gives are not always drawn.

System: 5-HT4R
Details: vs other receptors; cited from earlier work

COCCCN1CCC(NC(=O)c2cc(Cl)c(N)c3c2OCC3)CC1 [Prucalopride, 4-amino-5-chloro-2,3-dihydro-N-[1-3-methoxypropyl)-4-piperidinyl]-7-benzofuran carboxamide monohydrochloride]
selectivity for 5HT4R: >290-fold
